# Experimental data: PubChem BioAssay AID463187 (University of Pittsburgh Molecular Library Screening Center, 2010)
# Protein sequences, listed by entry. Tags and fused reporters are not part of them. Lines headed by an entry give the natural chain unless they say otherwise; changes in a name come on top.
# UniProt P08631: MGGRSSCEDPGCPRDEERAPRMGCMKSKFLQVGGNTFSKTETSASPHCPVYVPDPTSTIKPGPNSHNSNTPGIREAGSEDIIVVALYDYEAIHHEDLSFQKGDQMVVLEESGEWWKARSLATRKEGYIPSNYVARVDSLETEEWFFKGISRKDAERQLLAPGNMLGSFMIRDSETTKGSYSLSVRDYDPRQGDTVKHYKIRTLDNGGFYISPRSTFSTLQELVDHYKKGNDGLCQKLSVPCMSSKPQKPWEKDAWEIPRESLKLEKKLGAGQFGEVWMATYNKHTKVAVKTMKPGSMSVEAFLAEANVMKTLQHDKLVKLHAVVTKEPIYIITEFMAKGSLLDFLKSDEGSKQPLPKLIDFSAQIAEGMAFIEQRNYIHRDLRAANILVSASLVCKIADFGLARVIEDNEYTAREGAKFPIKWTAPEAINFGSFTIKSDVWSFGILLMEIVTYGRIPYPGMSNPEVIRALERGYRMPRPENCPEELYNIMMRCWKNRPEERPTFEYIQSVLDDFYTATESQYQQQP
# The list shows a part of the results, in another mix than the full data. Active and inactive are the calls of the source.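 Rule for the calls: active = Hck-Nef kinase inhibition above about 50% (limit read from the data); inactive = inhibition below that limit.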
# Target: Tyrosine-protein kinase HCK (Homo sapiens) (UniProt P08631)
# Experiment: Hck:Nef complex kinase activity blockers – biochemical, Z-Lyte FRET, 384-well, Hck-YEEI, primary screen (AID 463187);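 note: 0% = DMSO with Hck plus Nef and 100% = Hck alone without Nef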
# Settings: Recombinant Hck-YEEI plus Nef, Z-Lyte FRET kinase assay; at 20 µM; active compounds read high
row,Structure (SMILES),inhibition
1,CCN(CC)C(=S)SC(NC=O)C(Cl)(Cl)Cl (stereo unspecified),inactive: -0.1%
2,CC(C)NC(=O)NP(=O)(Oc1ccccc1)Oc1ccccc1,inactive: -6.65%
3,O=[N+]([O-])c1cc([N+](=O)[O-])c(-c2ccn[nH]2)s1,inactive: 8.12%
4,ClCCSc1nnc(-c2cccnc2)o1,inactive: 0.86%
5,CC(C)c1ccc(OP(=O)(Nc2ccccn2)Oc2ccccc2F)cc1 (stereo unspecified),inactive: -17.2%
6,Cc1ccc(OP(=O)(Nc2ccc([N+](=O)[O-])cn2)Oc2ccc(C)cc2)cc1,inactive: 7.15%
7,Cc1ccc2nc3c(c(C)c2c1)CC(C(Cl)Cl)S3 (stereo unspecified),inactive: 2.68%
8,O=[As](O)(c1ccc(O)cc1)c1ccccc1O,inactive: -14.3%
9,C[As](=O)(O)c1cccc(C(=O)O)c1,inactive: -2.63%
10,COc1ccc(N/C(=N/P(=O)(N2CCOCC2)N2CCOCC2)N2CCOCC2)cc1,inactive: 26.1%
11,COc1ccc2nc(NP(=O)(c3ccccc3)c3ccccc3)sc2c1,inactive: 14.9%
12,COc1cc(I)ccc1[As](=O)(O)O,inactive: 9.11%
13,Cc1c2c(nc3ccccc13)SC(C(Cl)Cl)C2 (stereo unspecified),inactive: 2.71%
14,O=C(OC1CN2CCC1CC2)C12CC3CC(CC(C3)C1)C2 (stereo unspecified),inactive: -1.73%
15,Cc1cc(=O)[nH]c(N[N+](=O)[O-])n1,inactive: 11.5%
16,CCC(C)N(CC(C)C)C(=S)SC(NC(C)=O)C(Cl)(Cl)Cl (stereo unspecified),inactive: 6.26%
17,CCOC(=O)c1ccc(NC(=O)C(C)(CCl)SC)cc1 (stereo unspecified),inactive: 17.1%
18,O=C(COc1ccccc1)OC1CN2CCC1CC2 (stereo unspecified),inactive: 1.16%
19,COP1(=S)c2c(C)nn(CCC#N)c2N=C(c2ccc(F)cc2)N1C (stereo unspecified),inactive: 1.23%
20,Cc1cc(SC(NC=O)C(Cl)(Cl)Cl)ncn1 (stereo unspecified),inactive: 9.62%
21,O=P(Nc1ccccn1)(c1cccc2ccccc12)c1cccc2ccccc12,inactive: -2.1%
22,O=[N+]([O-])c1ccc(Nc2ccc(Oc3ccc([N+](=O)[O-])cc3[N+](=O)[O-])cc2)c([N+](=O)[O-])c1,inactive: 6.38%

row,Structure (SMILES),inhibition
1,CCOC(=O)Nc1cccc([As](=O)(O)O)c1,inactive: 0.78%
2,Cc1cc(SC(NC(=O)c2ccccc2)C(Cl)(Cl)Cl)nc(C(C)C)n1 (stereo unspecified),inactive: -0.375%
3,CCOC(=O)Nc1ccc([As](=O)(O)O)c(O)c1,inactive: 4.26%
4,Nc1cccc([As](=O)(O)c2ccccc2)c1,inactive: 6.19%
5,O=P1(Nc2ccc(Br)cn2)COc2ccccc2OC1,inactive: 0.12%
6,Cc1ccc(OCC(=O)OC2CN3CCC2CC3)cc1 (stereo unspecified),inactive: -0.778%
7,O=[As](O)(c1cccs1)c1cccs1,inactive: 20.2%
8,O=P1(Nc2ncccn2)COc2ccccc2OC1,inactive: 2.07%
9,CN(C)C1(CNC(=O)c2ccc(S(C)(=O)=O)cc2)CCCCC1,inactive: 2.84%
10,O=C(/C=C/c1ccccc1)OC1CN2CCC1CC2 (stereo unspecified),inactive: -12.7%
11,Cc1nn(-c2ccccc2)c2c1P(=O)(N1CCOCC1)N(C)C(c1ccccc1)=N2 (stereo unspecified),inactive: -0.304%
12,CC1CCC(C(C)C)C(OP(=O)(Nc2ccccn2)c2ccccc2)C1 (stereo unspecified),inactive: 23.3%
13,CC(C)/C=N\N=C(\N)N[N+](=O)[O-],inactive: 0.179%
14,O=[As](O)(c1ccccc1Br)c1ccccc1Br,inactive: 9.81%
15,CC1(CBr)Cn2c(nc3ccccc3c2=O)S1 (stereo unspecified),inactive: 5.98%
16,Clc1n[nH]nc1-c1nn[nH][15n]1,inactive: 0.161%
17,CC(C)(C)C(=O)NC(Sc1ncccn1)C(Cl)(Cl)Cl (stereo unspecified),inactive: 10.9%
18,O=P1(Nc2ccccn2)COc2ccccc2OC1,inactive: 0.296%
19,CCOP(=O)(Nc1ccc(C)cn1)OCC,inactive: 18.1%
20,COc1cc(C2NCCC3(OCCO3)C2(C)C)cc(OC)c1OC (stereo unspecified),inactive: -2.47%
21,CCOP(=O)(Nc1cccc2ccccc12)OCC,inactive: -9.44%
22,Cc1ccc(NCCc2c([N+](=O)[O-])cc([N+](=O)[O-])cc2[N+](=O)[O-])cc1,inactive: 9.75%

row,Structure (SMILES),inhibition
1,Nc1cccc2c([As](=O)(O)O)cccc12,inactive: -6.35%
2,CCCOP(=S)(Nc1nc(N)cc(=O)[nH]1)OCCC,inactive: 16.4%
3,O=[As](O)(c1cccc(O)c1)c1cccc(O)c1,inactive: 3.13%
4,Cc1cccc(OCC(=O)OC2CN3CCC2CC3)c1 (stereo unspecified),inactive: -0.499%
5,O=C(OC1CN2CCC1CC2)c1ccc(Cl)cc1 (stereo unspecified),inactive: 14.9%
6,COc1cc(C(=O)NCC2(N3CCOCC3)CCCCC2)cc(Cl)c1OC(C)C,inactive: 27.4%
7,O=[As](O)(O)c1cccnc1,inactive: 2.39%
8,CCOP1(=S)c2c(C)nn(CCC#N)c2N=C(c2ccc(F)cc2)N1C (stereo unspecified),inactive: 0.982%
9,CN(C(=O)Cc1ccccc1)[C@@H]1CC[C@]2(CCCO2)C[C@H]1N1CCCC1,inactive: 28.7%
10,O=[N+]([O-])c1ccc2c(c1)nnn2O,inactive: -18%
11,NC(=O)Nc1ccc([As](=O)(O)O)cc1,inactive: 29.6%
12,O=C(O)COc1ccc([As](=O)(O)O)cc1[N+](=O)[O-],inactive: -6.57%
13,Nc1ccccc1[As](=O)(O)c1ccccc1,inactive: 5.8%
14,CCOP1(=S)c2c(C)nn(CCC#N)c2N=C(c2ccccc2F)N1C (stereo unspecified),inactive: 1.21%
15,O=P(Nc1nccs1)(c1ccccc1)c1nc2ccccc2s1 (stereo unspecified),inactive: -12.6%
16,O=P(Nc1nccs1)(Oc1ccccc1)Oc1ccccc1,inactive: 34.6%
17,CS(=O)(=O)c1cc([N+](=O)[O-])c2no[n+]([O-])c2c1,inactive: -162%
18,Cc1ccccc1OP(=O)(Nc1ccccn1)Oc1ccccc1C,inactive: 20.1%
19,CN(C)C(=O)Oc1noc2ccccc12,inactive: 14%
20,O=c1c2cc([N+](=O)[O-])ccc2[nH]c2c([N+](=O)[O-])cc([N+](=O)[O-])cc12,inactive: 25.2%
21,CCC(=O)N1C2C3N(C(=O)CC)C1C1N(C(=O)CC)C(C(N1C(=O)CC)N3C(=O)CC)N2C(=O)CC,inactive: 0.57%
22,COC(=O)c1cc2c(s1)N=C(c1ccccc1)N(C)P2(=O)N1CCOCC1 (stereo unspecified),inactive: 1.59%
